Amino acid sequences for entries named in this document (tags omitted). A change or cut given only in a name is not applied to a line headed by its entry.
UniProt O42275: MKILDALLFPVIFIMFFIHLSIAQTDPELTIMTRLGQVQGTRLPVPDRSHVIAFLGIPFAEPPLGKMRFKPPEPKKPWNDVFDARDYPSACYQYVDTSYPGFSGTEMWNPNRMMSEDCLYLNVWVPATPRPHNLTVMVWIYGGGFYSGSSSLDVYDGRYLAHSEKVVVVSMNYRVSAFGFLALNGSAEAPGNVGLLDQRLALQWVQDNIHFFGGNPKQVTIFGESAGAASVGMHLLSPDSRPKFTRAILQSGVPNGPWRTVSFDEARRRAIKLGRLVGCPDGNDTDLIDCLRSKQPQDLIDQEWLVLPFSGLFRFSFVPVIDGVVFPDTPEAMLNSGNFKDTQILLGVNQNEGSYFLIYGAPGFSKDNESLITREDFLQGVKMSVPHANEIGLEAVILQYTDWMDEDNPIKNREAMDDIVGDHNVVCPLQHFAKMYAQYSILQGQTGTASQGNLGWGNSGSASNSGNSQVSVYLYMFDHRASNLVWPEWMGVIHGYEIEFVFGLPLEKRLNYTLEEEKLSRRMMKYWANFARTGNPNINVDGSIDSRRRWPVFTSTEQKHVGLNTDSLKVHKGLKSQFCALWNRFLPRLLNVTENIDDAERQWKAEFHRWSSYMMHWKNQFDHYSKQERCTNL
UniProt P22303: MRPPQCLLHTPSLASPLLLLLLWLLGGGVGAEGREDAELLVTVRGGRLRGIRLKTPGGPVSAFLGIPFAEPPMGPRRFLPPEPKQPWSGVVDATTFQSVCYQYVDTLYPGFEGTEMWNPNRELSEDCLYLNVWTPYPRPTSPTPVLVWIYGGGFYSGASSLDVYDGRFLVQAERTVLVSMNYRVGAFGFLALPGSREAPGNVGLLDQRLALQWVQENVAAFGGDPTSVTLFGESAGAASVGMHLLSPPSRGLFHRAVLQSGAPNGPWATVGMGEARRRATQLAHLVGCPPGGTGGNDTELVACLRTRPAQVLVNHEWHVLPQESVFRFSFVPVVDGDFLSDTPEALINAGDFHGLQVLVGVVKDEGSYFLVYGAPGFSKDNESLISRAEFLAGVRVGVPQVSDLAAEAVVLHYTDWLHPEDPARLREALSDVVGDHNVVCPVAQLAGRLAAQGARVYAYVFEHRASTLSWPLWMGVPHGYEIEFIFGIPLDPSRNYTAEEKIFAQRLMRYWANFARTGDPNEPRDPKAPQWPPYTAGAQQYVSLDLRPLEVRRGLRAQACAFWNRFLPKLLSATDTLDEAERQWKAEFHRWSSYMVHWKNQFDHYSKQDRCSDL

According to ChEMBL document CHEMBL1123262, “Nonquaternary cholinesterase reactivators. 3. 3(5)-Substituted 1,2,4-oxadiazol-5(3)-aldoximes and 1,2,4-oxadiazole-5(3)-thiocarbohydroximates as reactivators of organophosphonate-inhibited eel and human acetylcholinesterase in vitro” (1986):

Assays:
[1] = biological target: Acetylcholinesterase (Electrophorus electricus) (UniProt O42275); assay: In vitro rate of EPMP-inhibited acetylcholinesterase reactivation, by the protonated (oxime) form.
[2] = biological target: Acetylcholinesterase (Electrophorus electricus) (UniProt O42275); assay: In vitro rate of EPMP-inhibited acetylcholinesterase reactivation by anionic (oximate) form.
[3] = biological target: Acetylcholinesterase (Homo sapiens) (UniProt P22303); assay: In vitro rate of EPMP-inhibited acetylcholinesterase reactivation, by the protonated (oxime) form.
[4] = biological target: Acetylcholinesterase (Homo sapiens) (UniProt P22303); assay: In vitro rate of EPMP-inhibited acetylcholinesterase reactivation, by anionic (oximate) form.
[5] = biological target: Acetylcholinesterase (Electrophorus electricus) (UniProt O42275); assay: AChE activity of compound on incubation interval (25 min) at 100 uM; 100*Observed activity/Corrected activity i.e. (100 At/Ac)
[6] = biological target: Acetylcholinesterase (Electrophorus electricus) (UniProt O42275); assay: AChE activity of compound on incubation interval (33 min) at 3 uM; 100*Observed activity/Corrected activity i.e. (100 At/Ac)
[7] = biological target: Acetylcholinesterase (Electrophorus electricus) (UniProt O42275); assay: AChE activity of compound on incubation interval (33 min) at 10 uM; 100*Observed activity/Corrected activity i.e. (100 At/Ac)
[8] = biological target: Acetylcholinesterase (Electrophorus electricus) (UniProt O42275); assay: AChE activity of compound on incubation interval (25 min) at 30 uM; 100*Observed activity/Corrected activity i.e. (100 At/Ac)

Row | SMILES | kHOX [1] | KOX [2] | kHOX [3] [M⁻¹ min⁻¹] | KOX [4] | Relative activity of AChE [5] | Relative activity of AChE [6] | Relative activity of AChE [7] | Relative activity of AChE [8]
1 | CCCCCCCCc1noc(/C(=N/O)SCCN(CC)CC)n1 | 64.5 M⁻¹ min⁻¹ | – | – | – | – | – | – | –
2 | CCN(CC)CCS/C(=N\O)c1nc(-c2cccc3ccccc23)no1 | 38.2 M⁻¹ min⁻¹ | 41.2 M⁻¹ min⁻¹ | – | – | – | – | – | –
3 | O/N=C/c1nc(-c2cccc3ccccc23)no1 | 587 M⁻¹ min⁻¹ | 2240 M⁻¹ min⁻¹ | 102 | 390 M⁻¹ min⁻¹ | – | – | – | –
4 | CCN(CC)CC/N=C(\NO)c1nc(-c2ccccc2)no1 | 19.4 M⁻¹ min⁻¹ | 327 M⁻¹ min⁻¹ | – | – | – | – | – | –
5 | CCN(CC)CCS/C(=N\O)c1nc(C)no1 | 2.9 M⁻¹ min⁻¹ | 3.1 M⁻¹ min⁻¹ | 1.4 | 1.5 M⁻¹ min⁻¹ | – | – | – | –
6 | O/N=C/c1nc(-c2ccncc2)no1 | – | – | 102 | 358 M⁻¹ min⁻¹ | – | – | – | –
7 | Cc1noc(/C=N/O)n1 | 130 M⁻¹ min⁻¹ | 542 M⁻¹ min⁻¹ | 11.2 | 47.4 M⁻¹ min⁻¹ | – | – | – | –
8 | O/N=C/c1nc(Cc2ccccc2)no1 | 116 M⁻¹ min⁻¹ | 368 M⁻¹ min⁻¹ | 49.6 | 158 M⁻¹ min⁻¹ | – | – | – | –
9 | CCN(CC)CCS/C(=N\O)c1nc(-c2ccccc2)no1 | 23.3 M⁻¹ min⁻¹ and 20.8 M⁻¹ min⁻¹ | 36.7 M⁻¹ min⁻¹ and 21.9 M⁻¹ min⁻¹ | – | 13.9 M⁻¹ min⁻¹ and 33.2 M⁻¹ min⁻¹ | 102 | 46 | 79 | 91
10 | O/N=C/c1nc(-c2cccs2)no1 | 327 M⁻¹ min⁻¹ | 1550 M⁻¹ min⁻¹ | 28.2 | 104 M⁻¹ min⁻¹ | – | – | – | –
11 | CCN(CC)CCS/C(=N\O)c1nc(Cc2ccccc2)no1 | 1.4 M⁻¹ min⁻¹ | 1.5 M⁻¹ min⁻¹ | 1.4 | 1.5 M⁻¹ min⁻¹ | – | – | – | –
12 | C[n+]1c(/C=N/O)cccc1CCO[n+]1ccc(C(N)=O)cc1 | 281 M⁻¹ min⁻¹ | 412 M⁻¹ min⁻¹ | 3440 | 5040 M⁻¹ min⁻¹ | – | – | – | –
13 | CCN(CC)CCS/C(=N\O)c1nc(C(C)(C)C)no1 | 0.85 M⁻¹ min⁻¹ | 0.94 M⁻¹ min⁻¹ | – | – | – | – | – | –
14 | C[n+]1ccccc1C=NO | 4420 M⁻¹ min⁻¹ | 15300 M⁻¹ min⁻¹ | 543 | 1880 M⁻¹ min⁻¹ | – | – | – | –
15 | CC(C)(C)c1noc(/C=N/O)n1 | 22.1 M⁻¹ min⁻¹ | 67.1 M⁻¹ min⁻¹ | 31.6 | 23.4 M⁻¹ min⁻¹ | – | – | – | –
16 | CCCCCCCCc1noc(/C=N/O)n1 | 419 M⁻¹ min⁻¹ | 2170 M⁻¹ min⁻¹ | 147 | 761 M⁻¹ min⁻¹ | – | – | – | –
17 | Cc1noc(/C=N\O)n1 | 14 M⁻¹ min⁻¹ | 154 M⁻¹ min⁻¹ | 2.4 | 24 M⁻¹ min⁻¹ | – | – | – | –

“And” between values parts separate entries of the source, which are not always exact repeats. Identical values can stand only once.
